These results are taken from ChEMBL document CHEMBL1140479, “NO donors. Part 16: investigations on structure-activity relationships of organic mononitrates reveal 2-nitrooxyethylammoniumnitrate as a high potent vasodilator” (Bioorg Med Chem Lett, 2007).

The structures appear in SMILES notation.

The EC50 is the concentration that produces a half-maximal response.

The test is described as follows: Vasodilatory effect in pig pulmonary artery assessed as inhibition of PGF2-alpha-induced contraction.

For the compound `O=[N+]([O-])OCCBr`, the EC50 is 377 nM.
